Measured values as given in patent US9371292B2, “Quinazoline derivative, preparation method therefor, intermediate, composition and application thereof” (SHANGHAI PHARMACEUTICALS HOLDINGS CO., LTD., priority 2011, dated 2016).

Protein sequences, listed by entry. Tags and fused reporters are not part of them. Residues count along the entry.
UniProt P00533, 25-1210: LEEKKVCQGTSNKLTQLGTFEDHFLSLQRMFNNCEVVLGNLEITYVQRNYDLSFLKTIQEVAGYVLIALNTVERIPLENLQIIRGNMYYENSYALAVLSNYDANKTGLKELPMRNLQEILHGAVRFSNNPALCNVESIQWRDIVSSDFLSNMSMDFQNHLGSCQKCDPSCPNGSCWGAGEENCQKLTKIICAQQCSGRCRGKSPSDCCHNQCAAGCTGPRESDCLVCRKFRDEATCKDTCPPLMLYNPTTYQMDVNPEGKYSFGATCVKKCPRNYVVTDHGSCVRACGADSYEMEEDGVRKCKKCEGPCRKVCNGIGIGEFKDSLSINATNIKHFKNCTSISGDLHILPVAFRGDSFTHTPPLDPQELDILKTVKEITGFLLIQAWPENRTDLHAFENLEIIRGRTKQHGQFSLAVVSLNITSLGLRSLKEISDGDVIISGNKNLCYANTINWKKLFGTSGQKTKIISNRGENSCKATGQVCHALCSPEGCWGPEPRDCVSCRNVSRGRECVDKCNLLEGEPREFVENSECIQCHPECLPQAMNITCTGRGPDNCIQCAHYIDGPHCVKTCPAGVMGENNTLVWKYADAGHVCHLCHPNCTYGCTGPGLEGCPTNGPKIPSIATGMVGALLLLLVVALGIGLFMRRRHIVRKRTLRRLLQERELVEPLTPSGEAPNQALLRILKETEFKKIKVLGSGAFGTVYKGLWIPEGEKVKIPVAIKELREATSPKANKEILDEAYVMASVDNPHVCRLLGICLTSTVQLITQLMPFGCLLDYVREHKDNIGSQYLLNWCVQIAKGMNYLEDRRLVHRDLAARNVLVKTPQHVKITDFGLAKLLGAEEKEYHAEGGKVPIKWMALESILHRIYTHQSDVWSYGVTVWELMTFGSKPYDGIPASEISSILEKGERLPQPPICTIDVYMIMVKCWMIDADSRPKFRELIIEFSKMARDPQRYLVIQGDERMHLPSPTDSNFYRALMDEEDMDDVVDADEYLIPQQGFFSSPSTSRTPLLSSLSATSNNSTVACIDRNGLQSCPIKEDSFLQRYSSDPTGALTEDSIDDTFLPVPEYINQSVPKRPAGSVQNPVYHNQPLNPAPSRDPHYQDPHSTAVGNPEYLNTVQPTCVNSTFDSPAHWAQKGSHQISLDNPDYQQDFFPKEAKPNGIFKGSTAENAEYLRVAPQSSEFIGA

How the values were obtained:
[1] = system: NCI-H1975 L858R T790M cell; test: Proliferation inhibition, H1975 cells (CellTiter-Glo); assay type: cell-based; details: Homo sapiens, 48 hours
Method: (§1) This example is to determine the proliferation inhibitory activity against wide type of high expression cell lines A431 of EGFR and mutant cell lines NCI-H1975^L858RT790M, the proliferation inhibitory activity in cell-based level of compound is expressed by IC50. The test method is as follows: both cell lines are purchased from American type culture collection (ATCC). The cells are seeded in a white and opaque 384-well culture plate with a proper concentration (A431: 20000 cells/ml medium; H1975: 15000 cells/ml medium), cultured at 37° C. with 5% CO2 for 24 hrs, a series of medicine with gradient concentration is added, generally 10 concentrations, cultured for another 48 hours under the previous conditions. The assays of the proliferation inhibitory activity against the A431 and H1975 cell of the test compounds are performed by the CellTiter-Glo Luminescent Cell Viability Assay and calculate the proliferation inhibitory activity of compound with different concentrations. CellTiter-Glo Luminescent Cell Viability Assay is purchased from Promega. Fit the data of proliferation inhibitory activity against A431 and H1975 of compounds with different concentrations with 4-parameter equation.

[2] = system: A431 cell; test: Proliferation inhibition, A431 cells (CellTiter-Glo); assay type: cell-based; details: Homo sapiens, A-431, 48 hours
Method: as §1

[3] = molecular target: T1, EGFR tyrosine kinase (Homo sapiens, UniProt P00533); test: HTRF assay, inhibition of EGFR tyrosine kinase; assay type: biochemical; details: HTRF method
T1 construct: purchased Sigma Aldrich
Method: The activity of inhibitory against the kinase of the test compound is expressed by IC50. The assays are performed by Homogeneous time-resolved fluorescence (HTRF) method which is as follows: a series of synthesized analogues with gradient concentration are incubated for 5 minutes in enzymatic solution with specific concentration (for EGFR) at room temperature. Then proper amount of substrate and ATP are added into the reaction mixture to start the enzyme reaction. The assays of the specific concentration of compound is measured by Flexstation III of Molecular device company after the stop buffer and detecting liquid are added to the enzyme reaction system and hatch at room temperature for 1 hour. And the activity of inhibitory against the kinase of the test compound with different concentration will be calculated, then according to the 4-parameter equation, fit the inhibitory activity of the test compound with different concentration to get the IC50. EGFR is purchased from Sigma Aldrich. The HTRF KinEASE-TK is purchased from Cisbio Bioassays. ATP is purchased from Sigma Aldrich.

| IC50 [1] [nM] | IC50 [2] [nM] | IC50 [3] [nM] | SMILES |
| --- | --- | --- | --- |
| 760 |  |  | COc1cc2ncnc(Nc3ccc(F)c(Cl)c3)c2cc1NC(=O)/C(F)=C\CN1CCCCC1 [Compound 8-2, (E)-N-(4-((3-chloro-4-fluorophenyl)amino)-7-methoxyquinazolin-6-yl)-2-fluoro-4-(piperidin-1-yl)but-2-enamide] |
| 640 | 980 |  | CCOc1cc2ncnc(Nc3ccc(OCc4ccccn4)c(Cl)c3)c2cc1NC(=O)/C(F)=C/CN(C)C [Compound 19-1, (Z)-N-(4-((3-chloro-4-(pyridin-2-ylmethoxy)phenyl)amino)-7-ethoxyquinazolin-6-yl)-4-(dimethylamino)-2-fluorobut-2-enamide] |
|  |  | 1 | O=C(Nc1cc2c(Nc3ccc(F)c(Cl)c3)ncnc2cc1O[C@H]1CCOC1)/C(F)=C/CN1CCOCC1 [Compound 20-1, (S,Z)-N-(4-((3-chloro-4-fluorophenyl)amino)-7-((tetrahydrofuran-3-yl)oxy)quinazolin-6-yl)-2-fluoro-4-morpholinobut-2-enamide] |
|  | 680 |  | COc1cc2ncnc(Nc3ccc(F)c(Cl)c3)c2cc1NC(=O)/C(F)=C/CN1CCCCC1 [Compound 8-1, (Z)—N-(4-((3-chloro-4-fluorophenyl)amino)-7-methoxyquinazolin-6-yl)-2-fluoro-4-(piperidin-1-yl)but-2-enamide] |
|  | 980 |  | CCOc1cc2ncnc(Nc3ccc(OCc4ccccn4)c(Cl)c3)c2cc1NC(=O)/C(F)=C\CN(C)C [Compound 19-2, (E)-N-(4-((3-chloro-4-(pyridin-2-ylmethoxy)phenyl)amino)-7-ethoxyquinazolin-6-yl)-4-(dimethylamino)-2-fluorobut-2-enamide] |
|  |  | 0.26 | O=C(Nc1cc2c(Nc3ccc(F)c(Cl)c3)ncnc2cc1O[C@H]1CCOC1)/C(F)=C\CN1CCOCC1 [Compound 20-2, (S,E)-N-(4-((3-chloro-4-fluorophenyl)amino)-7-((tetrahydrofuran-3-yl)oxy)quinazolin-6-yl)-2-fluoro-4-morpholinobut-2-enamide] |

| SMILES | IC50 [1] [nM] | IC50 [2] [nM] | IC50 [3] [nM] |
| --- | --- | --- | --- |
| COc1cc2ncnc(Nc3ccc(F)c(Cl)c3)c2cc1NC(=O)/C(F)=C/CN(C)C [Compound 2-1, (Z)—N-(4-((3-chloro-4-fluorophenyl)amino)-7-methoxyquinazolin-6-yl)-4-(dimethylamino)-2-fluorobut-2-enamide] | 410 | 550 |  |
